## scFv variants of Ab-14 (light chain) against a SARS-CoV-2 spike peptide

Reference: Engelhart et al. 2022, doi:10.1038/s41597-022-01779-4. File: FLAb, binding data.

Target: peptide PDVDLGDISGINAS, taken from heptad repeat 2 (HR2) of SARS-CoV-2 spike.

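In library AAYL50, one, two or three CDR residues were substituted; doubles and triples were drawn at random. Affinity was read by AlphaSeq, a pooled yeast mating assay with surface-displayed partners. Binding brings cells together so that they mate, and sequencing counts the barcode pairs among the diploids. Each replicate has its own calibration line, from reference interactions of the BCL2 family. The assay was run in three technical replicates.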

Parent scFv Ab-14: VH joined to VL by a 15-residue (Gly4Ser)3 linker. Changes lie in the light chain CDRs alone.
VH: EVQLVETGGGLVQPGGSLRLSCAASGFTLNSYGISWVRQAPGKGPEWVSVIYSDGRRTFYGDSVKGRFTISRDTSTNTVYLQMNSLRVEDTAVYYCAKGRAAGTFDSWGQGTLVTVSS
VL: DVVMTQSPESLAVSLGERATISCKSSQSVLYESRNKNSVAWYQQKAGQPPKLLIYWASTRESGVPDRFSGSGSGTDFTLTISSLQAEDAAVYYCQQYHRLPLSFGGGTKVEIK

Positions count from residue 1 of the parent VL; K36Q puts Q in place of K.
Affinities are written as log10 Kd with Kd in nM; a lower number is a better binder.
An entry "n.d." has no value in the source: the pair was not observed among the diploids in that replicate. This suggests poor binding but is not conclusive.
Background: pairings of library AAYL50 with three empty control strains gave a value in 18% of cases (median 4.19, 5th percentile 2.99). Values in that range, when seen in few replicates, are hard to tell from nonspecific mating. Also given: how often the same scFv was detected with the empty control strains, with their mean in brackets.

changes,"log10 Kd, replicates",signal with controls
K36Q/T59R/Q95I,0.73 0.70 0.69,1 of 9 (4.52)
S26G/E32R/S103Y,2.97 3.54 3.34,4 of 9 (4.22)
S28D/V39D/H98R,n.d. n.d. n.d.,1 of 9 (4.08)
S33A/S38W/A40H,n.d. n.d. n.d.,0 of 9
V29R/Q95C/Q96T,0.34 0.63 0.46,0 of 9
E32T/K36H/H98R,4.63 3.41 n.d.,4 of 9 (4.57)
S25C/S33R,1.06 1.19 1.42,7 of 9 (4.67)
Q96E/H98S/S103E,n.d. n.d. n.d.,0 of 9
S38W/W56R/Q95Y,n.d. n.d. n.d.,0 of 9
K36E/R60C/S103E,n.d. n.d. n.d.,0 of 9
V39P/H98E/R99Q,4.58 5.06 3.88,1 of 9 (4.54)
E32N/S33G/P101S,1.63 1.50 1.65,2 of 9 (4.45)
S26R/K36C/S58P,3.29 3.61 3.79,0 of 9
S28G/K36H/Q96N,n.d. n.d. 4.79,4 of 9 (4.58)
S26N/N37E/S62R,3.89 n.d. n.d.,4 of 9 (4.67)
S28P/V29N/A40Y,n.d. n.d. n.d.,0 of 9
L30E/A57R/S58L,n.d. n.d. n.d.,0 of 9
E32P/K36W,0.76 0.97 0.90,4 of 9 (4.99)
S38Q/R99N/L100M,2.84 3.24 3.52,7 of 9 (4.75)
Y31M/R99P,n.d. n.d. n.d.,2 of 9 (4.04)
V29L/T59N/L100K,1.38 1.28 1.23,1 of 9 (3.61)
V39E/S58V/H98M,n.d. 3.14 n.d.,0 of 9
Q27S/R60G/Q95P,n.d. 2.79 n.d.,0 of 9
N35L/S58I,2.28 2.05 3.03,0 of 9
K24L/K36P/H98L,n.d. n.d. 2.86,0 of 9
E32W/A40C/E61M,4.21 n.d. 4.01,6 of 9 (3.58)
S25F/Y31H/R99P,n.d. 4.31 n.d.,3 of 9 (3.95)
S38I/E61R/P101G,3.92 n.d. n.d.,2 of 9 (4.17)
K24G/L30E/S38T,n.d. 5.12 n.d.,2 of 9 (4.35)
Q27T/Q96N,n.d. n.d. n.d.,0 of 9
E32R/V39H/Y97K,n.d. 2.83 n.d.,2 of 9 (4.05)
Q27M/L30D/N37L,4.97 2.29 2.82,5 of 9 (4.30)
R34W,0.65 0.92 0.81,5 of 9 (4.08)
S26H/Y31N/S33N,1.57 1.62 1.80,3 of 9 (5.54)
R99N,1.00 1.24 1.17,3 of 9 (4.30)
S25V/Y31K/A57L,1.10 1.16 0.96,0 of 9
S38F/R99I/S103K,n.d. n.d. n.d.,0 of 9
R34K/N37L/T59N,3.27 3.37 4.05,5 of 9 (4.40)
K24Q/Y97H,2.37 1.83 2.22,0 of 9
L30Q/V39W/Y97C,n.d. n.d. n.d.,0 of 9
K24S/S28E/P101V,5.31 n.d. n.d.,0 of 9
V29N/L100A/P101W,1.29 1.40 1.70,6 of 9 (4.37)
T59P/R60W/L100R,n.d. n.d. n.d.,0 of 9
T59H/R60T/H98G,n.d. 4.53 3.95,1 of 9 (2.83)
S25N/S62G/P101R,2.87 3.53 4.65,4 of 9 (4.23)
S33T/A40M,n.d. n.d. n.d.,0 of 9
A57F/S62W,n.d. 2.85 n.d.,1 of 9 (3.82)
L30H/S38G,2.04 2.92 n.d.,1 of 9 (3.57)
Y31K/L102I,n.d. 2.71 n.d.,1 of 9 (3.58)
Q27R/R60P/L100F,3.12 3.43 n.d.,3 of 9 (5.43)
K24R/H98L,3.60 n.d. n.d.,1 of 9 (4.11)

Extract of 4 entries:

changes	log10 Kd, replicates	signal with controls
R34W	0.65 0.92 0.81	5 of 9 (4.08)
S38W/W56R/Q95Y	n.d. n.d. n.d.	0 of 9
S26G/E32R/S103Y	2.97 3.54 3.34	4 of 9 (4.22)
K24L/K36P/H98L	n.d. n.d. 2.86	0 of 9